System: live 4T1 tumor cells
Assay: Serum IgG antibody binding to live 4T1 tumor cells
Assay type: in vivo, mice
Details: serum IgG on live 4T1 cells

CC(C)Cn1cnc2c(N)nc3ccccc3c21 [Imiquimod, imiquimod]
mice having very high staining: 3 of the 5

From US12280039B2, “Cancer vaccine compositions and methods of use thereof” (priority 2018, dated 2025)
